# esBAF inh: SWI/SNF esBAF complex inhibition. mouse ES cells, Bmi1-luciferase knock-in reporter, 24 h; 100% = twice the neutral-well signal. reporter increase, % at 12.5 µM. 350,000 compounds, 2% hits; in the data active means activation above about 40%;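 further: 0% = median of the plate's neutral control wells and 100% = double that signal; a rise in the Bmi1 reporter signal indicates esBAF inhibition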
# Yeast UUG start: alters start codon recognition fidelity in yeast; S. cerevisiae UUG-firefly luciferase reporter, luminescence/redox ratio; activity score, % at 18.7 µM; actives 0.13% (n = 350,000); AID 602363;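 active = replicate mean at a twofold rise or more, about +100% in these data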;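 also: firefly luciferase made from a UUG start codon reports start codon fidelity; reporter light over untreated wells divided by growth signal over untreated wells; some hits fall short of that in this replicate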
# PglD inh: blocks C. jejuni PglD acetyltransferase activity; 360,000 compounds, 0.098% hits; inhibition, % at 12.5 µM; purified PglD enzyme, DTNB colorimetric CoA detection; AID 602405; in the data active means inhibition above about 16%, passing the limit was not always enough
# E-sel inducer: induces E-selectin expression in human endothelial cells; AID 686992; activation, % at 7.58 µM; 260,000 compounds, 0.37% hits; HUVEC E-selectin immunofluorescence imaging; normalized: neutral wells 0, TNF-alpha wells 100;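 active means mean E-selectin-positive cell signal at least 10% of the positive control, reached in at least 60% of replicates, without over 20% cell loss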
#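 Test system: HUVEC | Signal: Immunofluorescence imaging | Read-out: Percent E-selectin-positive cells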
# PGC1a acetyl inh: lowers PGC1a acetylation signal in U2OS cells; AlphaScreen anti-acetyl-lysine; with virally co-expressed GCN5 acetyltransferase; 350,000 compounds, 0.17% hits; AID 651687; inhibition, % at 15.6 µM;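 active means every replicate shows inhibition of at least 40%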;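 further: 0% = neutral control wells and 100% = positive control wells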
# C2C12 statin: protects C2C12 myotubes from simvastatin toxicity; 330,000 compounds, 0.78% hits; rescue of ATP level, % at 7.49 µM; ATP luminescence, 48 h; scaled: DMSO 0, geranylgeraniol control 100;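 active means mean ATP rescue above about 67%, or every replicate alone reaching that limit, limit read from the data, passing the limit was not always enough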;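 further: myotubes were challenged with 10 µM simvastatin during compound exposure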
# * = called active by the depositor; x = no result given. The list is not random: actives were taken first. Their share in the collection is about 2.8%.
# Short keys – A = esBAF inh; B = Yeast UUG start; C = PglD inh; D = E-sel inducer; E = PGC1a acetyl inh; F = C2C12 statin
Cc1cc(=O)oc2cc(NC(=O)c3ccc(OC(F)F)cc3)ccc12
  A: 57.0*	B: -6.3	C: -4.8	D: -0.4	E: x	F: -57.0

COc1ccccc1C(=O)Nc1ccc2c(C)cc(=O)oc2c1
  A: 54.4*	B: -6.8	C: -0.1	D: 0.5	E: x	F: -19.3

CNC[C@H]1OCCCC[C@@H](C)Oc2ccc(N(C)C)cc2C(=O)N([C@H](C)CO)C[C@@H]1C
  A: -1.3	B: -14.9	C: -5.0	D: 2.9	E: 5.7	F: 16.1

C/C=C/c1cnc2c(c1)C(=O)N([C@@H](C)CO)C[C@H](C)[C@@H](CN(C)Cc1ccccc1)O2
  A: -1.9	B: 11.2	C: -3.1	D: 0.6	E: -14.5	F: 3.1

Fc1ccc(C2=Nn3c(nnc3-c3n[nH]c4c3CCC4)SC2)cc1
  A: 1.0	B: -18.1	C: 1.3	D: x	E: -13.2	F: 114.2*

CC1=Nn2c(nnc2-c2n[nH]c3c2CCC3)SC1
  A: -6.1	B: -6.5	C: 4.3	D: x	E: 4.7	F: -15.5

CCCCN1C(=O)NC(NC(C)=O)(C(F)(F)F)C1=O (stereo not drawn)
  A: -9.3	B: -6.7	C: -4.4	D: x	E: 3.0	F: 105.4*

CC(=O)NC1(C(F)(F)F)NC(=O)N(CCc2ccccc2)C1=O (stereo not drawn)
  A: -2.2	B: 4.0	C: 5.3	D: x	E: -8.7	F: -18.2

Cc1ccc(-c2ccc3c(c2)O[C@@H](CN(C)C(=O)Nc2ccc(F)cc2)[C@H](C)CN([C@@H](C)CO)S3(=O)=O)cc1
  A: -3.9	B: -11.8	C: -0.1	D: 0.4	E: -1.3	F: -14.0

COc1ccccc1-c1nnc(NC(=O)CSc2nncn2C)s1
  A: x	B: x	C: x	D: 36.7*	E: x	F: x

# Reprinted from the part before: 2 entries; new compounds follow.
# Short keys – A = esBAF inh; B = Yeast UUG start; C = PglD inh; D = E-sel inducer; E = PGC1a acetyl inh; F = C2C12 statin
Cc1ccc(-c2ccc3c(c2)O[C@@H](CN(C)C(=O)Nc2ccc(F)cc2)[C@H](C)CN([C@@H](C)CO)S3(=O)=O)cc1
  A: -3.9	B: -11.8	C: -0.1	D: 0.4	E: -1.3	F: -14.0

COc1ccccc1-c1nnc(NC(=O)CSc2nncn2C)s1
  A: x	B: x	C: x	D: 36.7*	E: x	F: x

COc1ccccc1-c1nnc(NC(C)=O)s1
  A: x	B: -10.7	C: -2.4	D: x	E: x	F: x

COC(=O)c1cc(Cl)cc2c(C)c(C3(O)CCCCC3)[nH]c12
  A: -5.8	B: 17.6	C: 3.4	D: -0.1	E: x	F: 17.3

COC(=O)c1ccc2c(C)c(C3(O)CCCCC3)[nH]c2c1
  A: 66.2*	B: -12.3	C: 1.8	D: 0.3	E: x	F: 8.3

COCc1cc(=O)[nH]c(Nc2nc3ccccc3o2)n1
  A: 49.8*	B: -18.3	C: -0.3	D: x	E: -8.1	F: 19.3

CCCNC(=O)C[C@@H]1C[C@H]2c3cc(NC(=O)COC)ccc3O[C@H]2[C@H](CO)O1
  A: 2.6	B: x	C: 0.8	D: 0.7	E: -8.1	F: 1.8

COc1ccc(S(=O)(=O)N(C)C[C@@H]2OCc3ccccc3-c3ccccc3C(=O)N([C@@H](C)CO)C[C@H]2C)cc1
  A: 0.1	B: 8.1	C: 0.5	D: -0.5	E: 0.7	F: x

Cc1c(C(=O)Nc2nccs2)oc2ccc(Br)cc12
  A: 72.4*	B: 12.7	C: 1.7	D: 0.3	E: -5.4	F: -13.2

Cc1c(C(=O)Nc2nccs2)oc2ccc(F)cc12
  A: -12.4	B: -10.4	C: 4.0	D: x	E: x	F: -15.7

COc1cccc2sc(Nc3nc4ccc(NC(C)=O)cc4s3)nc12
  A: 47.7*	B: x	C: x	D: 4.2	E: x	F: 2.1

Cc1c(NC(=O)c2cc(-n3cnnc3)ccc2Cl)cccc1-c1nc2ccccc2s1
  A: 12.5	B: -24.4	C: 8.2	D: x	E: -5.1	F: -5.8

CC(=O)Nc1ccc2nc(NC(=O)COc3ccccc3Cl)sc2c1
  A: 59.5*	B: -19.3	C: -5.3	D: x	E: 10.3	F: -5.6

CC(=O)Nc1cccc(-c2nc3ccccc3s2)c1
  A: 37.3	B: x	C: x	D: x	E: 9.8	F: -26.2

CC(=O)Nc1cccc(-c2nc3ccc(NC(C)=O)cc3s2)c1
  A: 54.1*	B: x	C: x	D: x	E: -3.7	F: -1.6

O=C(Nc1cccc(-c2nc3ccccc3s2)c1)c1cc(-n2cnnc2)ccc1Cl
  A: 81.8*	B: -3.8	C: 1.8	D: x	E: 2.2	F: -1.4

O=C(C[C@@H]1C[C@@H]2c3cc(NC(=O)C4CCC4)ccc3O[C@@H]2[C@@H](CO)O1)NCc1cccc(F)c1
  A: 1.6	B: x	C: 2.8	D: -0.2	E: -7.3	F: -7.0

Cc1noc(C)c1NC(=O)Nc1ccc2c(c1)C(=O)N([C@H](C)CO)C[C@@H](C)[C@H](CN(C)Cc1ccc(Cl)c(Cl)c1)O2
  A: -5.2	B: -5.0	C: 0.0	D: -5.1	E: -5.8	F: 28.0

COCC(=O)N1C[C@@H](C)[C@H](OC)CN(C)C(=O)c2cc(NC(=O)c3ccc(OC)cc3)ccc2OC[C@H]1C
  A: -5.3	B: 1.3	C: -0.6	D: 0.2	E: -8.5	F: 2.2

CCC(=O)N(C)C[C@@H]1Oc2cc(C#CC3CCCC3)ccc2S(=O)(=O)N([C@@H](C)CO)C[C@@H]1C
  A: 10.5	B: 3.0	C: 1.5	D: 0.1	E: -25.5	F: 10.2

Cc1ccc(NC(=O)COc2ccccc2C=O)cc1Cl
  A: 46.8*	B: x	C: x	D: 15.2	E: 6.2	F: -1.1

CCOc1ccccc1Nc1nc(N)nc(Cl)c1CC
  A: x	B: -11.1	C: 0.4	D: 0.1	E: -8.4	F: 106.6*

# Among those listed so far, these have a CF3 group:
# Short keys – A = esBAF inh; B = Yeast UUG start; C = PglD inh; D = E-sel inducer; E = PGC1a acetyl inh; F = C2C12 statin
CCCCN1C(=O)NC(NC(C)=O)(C(F)(F)F)C1=O (stereo not drawn)
  A: -9.3	B: -6.7	C: -4.4	D: x	E: 3.0	F: 105.4*

CC(=O)NC1(C(F)(F)F)NC(=O)N(CCc2ccccc2)C1=O (stereo not drawn)
  A: -2.2	B: 4.0	C: 5.3	D: x	E: -8.7	F: -18.2

# Next section.
Molecule	esBAF inh	Yeast UUG start	PglD inh	E-sel inducer	PGC1a acetyl inh	C2C12 statin
CCc1c(Cl)nc(N)nc1Nc1ccccc1Cl	1.9	-12.3	1.2	-0.8	x	2.9
C[C@@H]1CCCCO[C@@H](CN(C)Cc2ccc(C(F)(F)F)cc2)[C@H](C)CN([C@H](C)CO)C(=O)c2cc(NC(=O)Nc3ccccc3)ccc2O1	4.7	6.7	-0.7	0.2	-23.6	x
O=C(CSc1nc2c(cnn2-c2ccc(F)cc2)c(=O)[nH]1)N1CCOCC1	-12.2	-8.2	-6.0	x	-4.6	-3.3
Cc1ccc(-n2ncc3c(=O)[nH]c(SCC(=O)N4CCOCC4)nc32)cc1	-10.3	-2.9	2.0	x	9.4	128.8*
O=c1[nH]c(SCc2nc3c(cnn3-c3ccccc3)c(=O)[nH]2)nc2ccccc12	44.5*	-3.6	-3.7	x	1.2	-2.3
O=C(CSc1nc2c(cnn2-c2ccccc2)c(=O)[nH]1)N1CCOCC1	-5.2	-14.5	2.0	x	-2.0	142.4*
O=c1[nH]c(CSc2nc3ccccc3[nH]2)nc2c1cnn2-c1ccccc1	x	-6.2	7.2	x	-1.8	x
CO[C@@H]1CN(C)C(=O)c2cc(NS(C)(=O)=O)ccc2OC[C@@H](C)N(Cc2ccccn2)C[C@@H]1C	0.7	x	x	-0.4	-3.9	4.8
CO[C@H]1CN(C)C(=O)c2cc(NC(=O)C3CCCCC3)ccc2OC[C@@H](C)N(Cc2cccnc2)C[C@@H]1C	12.7	7.2	-1.6	0.0	x	1.2
CS(=O)(=O)N1CCCCN2[C@H](CO)[C@H](c3ccc(Br)cc3)[C@@H]2C1	-6.3	-6.8	5.5	-0.2	2.2	7.6
C[C@@H]1CN([C@@H](C)CO)C(=O)c2cccc(NC(=O)Nc3ccccc3)c2O[C@@H]1CN(C)S(=O)(=O)c1ccc(F)cc1	9.0	-1.7	2.4	0.6	-5.2	74.2*
Cc1ccc(S(=O)(=O)N(C)C[C@H]2Oc3c(NC(=O)Nc4ccccc4)cccc3C(=O)N([C@H](C)CO)C[C@H]2C)cc1	5.1	4.1	10.7	1.3	-1.8	116.7*
Cc1ccc(S(=O)(=O)N(C)C[C@H]2Oc3c(NC(=O)Nc4ccccc4)cccc3C(=O)N([C@@H](C)CO)C[C@H]2C)cc1	3.0	-9.4	-3.4	0.3	5.5	122.7*
Cc1ccc(S(=O)(=O)N(C)C[C@@H]2Oc3c(NC(=O)Nc4ccccc4)cccc3C(=O)N([C@@H](C)CO)C[C@@H]2C)cc1	4.9	-0.8	5.2	0.1	-7.1	-9.1
C[C@H](CO)N1C[C@H](C)[C@H](CN(C)S(=O)(=O)c2ccc(F)cc2)Oc2c(NC(=O)Nc3ccccc3)cccc2C1=O	-0.6	12.8	0.8	0.4	-11.6	3.5
